Literature values, collected in Sander's compilation of Henry's law constants (doi:10.1016/s0045-6535(00)00505-1).

Test: Henry solubility constant Hcp at 298.15 K (mol/(m3 Pa))
Conditions: reference: Staudinger and Roberts (2001); cited value

SMILES	Henry solubility constant Hcp
CCC(C)O[N+](=O)[O-] (configuration not stated) [2-butyl nitrate]	0.0064
CCl [chloromethane]	0.0011
